Holding throughout (format): biochemical
For one assay, the target named is JAK3 (Homo sapiens, UniProt P52333). In words: JAK3 inhibition assay (standard radioactive enzyme assay). The settings on record: read-out: JAK3 Ki; average Ki if more than one value determined. How it is done:
(§1) Compounds were screened for their ability to inhibit JAK3 using a standard radioactive enzyme assay. 1.5 μL/well of a DMSO stock containing serial dilutions of a compound of the present invention (concentrations ranging from 667 μM to 46 nM) was placed in a 96 well polycarbonate plate. 50 μL per well of kinase buffer (100 mM HEPES (pH 7.4), 10 mM MgCl2, 25 mM NaCl, 1 mM DTT, and 0.01% bovine serum albumin (BSA)) containing 2 μM poly(Glu)4Tyr and 10 μM ATP was also added to the plate. To initiate the reaction, 50 μL kinase buffer containing 2 nM JAK3 enzyme was added. Final ATP concentration was 5 μM [γ-^33P] ATP (200 μCi ^33P ATP/μmol ATP (Perkin Elmer, Cambridge, Mass.). After 20 minutes at room temperature (25° C.), the reaction was stopped by adding 50 μL 20% trichloroacetic acid (TCA)/0.4 mM ATP to each well. The entire content of each well was then transferred to a 96 well glass fiber filter plate using a TomTek Cell Harvester. After washing, 60 μL scintillation fluid was added and ^33P incorporation detected using a Perkin Elmer TopCount. After removing mean background values for all of the data points the data was fit using Prism software to obtain a Ki(app). Inhibition of JAK2 was measured as above except that final poly(Glu)4Tyr concentration was 15 μM and final ATP concentration was 12 μM.

Amino acid sequences for entries named in this document (tags omitted). Residues count along the entry.
UniProt P52333, whole entry: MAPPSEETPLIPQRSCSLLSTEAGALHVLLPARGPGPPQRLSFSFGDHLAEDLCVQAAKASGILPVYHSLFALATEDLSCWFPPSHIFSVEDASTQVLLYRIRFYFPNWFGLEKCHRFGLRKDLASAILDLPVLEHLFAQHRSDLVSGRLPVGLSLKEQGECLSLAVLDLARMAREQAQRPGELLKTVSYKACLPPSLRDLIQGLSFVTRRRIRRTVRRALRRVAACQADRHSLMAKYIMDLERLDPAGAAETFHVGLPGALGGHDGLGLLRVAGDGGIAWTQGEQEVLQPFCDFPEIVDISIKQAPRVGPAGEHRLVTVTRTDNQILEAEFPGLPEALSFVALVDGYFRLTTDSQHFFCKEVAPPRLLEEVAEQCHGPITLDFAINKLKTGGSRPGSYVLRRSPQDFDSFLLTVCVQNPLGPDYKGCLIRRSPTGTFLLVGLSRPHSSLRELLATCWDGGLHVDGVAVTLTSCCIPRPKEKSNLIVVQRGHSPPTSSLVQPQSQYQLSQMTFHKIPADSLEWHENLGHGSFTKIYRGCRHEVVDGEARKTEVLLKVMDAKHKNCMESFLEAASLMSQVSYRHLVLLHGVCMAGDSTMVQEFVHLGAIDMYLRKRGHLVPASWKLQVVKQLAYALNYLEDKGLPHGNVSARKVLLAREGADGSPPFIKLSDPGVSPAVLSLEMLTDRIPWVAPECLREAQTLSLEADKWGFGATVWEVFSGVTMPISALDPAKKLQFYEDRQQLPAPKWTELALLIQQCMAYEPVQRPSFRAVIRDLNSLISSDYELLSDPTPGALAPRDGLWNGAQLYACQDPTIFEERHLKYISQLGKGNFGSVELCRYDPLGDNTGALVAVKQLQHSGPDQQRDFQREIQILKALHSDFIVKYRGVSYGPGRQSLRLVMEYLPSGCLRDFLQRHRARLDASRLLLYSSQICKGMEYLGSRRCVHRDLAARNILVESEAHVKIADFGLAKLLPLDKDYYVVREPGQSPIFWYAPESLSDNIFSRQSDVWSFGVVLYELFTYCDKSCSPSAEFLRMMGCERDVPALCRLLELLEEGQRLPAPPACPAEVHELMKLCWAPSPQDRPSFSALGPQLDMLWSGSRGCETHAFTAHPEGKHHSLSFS
UniProt O60674, whole entry: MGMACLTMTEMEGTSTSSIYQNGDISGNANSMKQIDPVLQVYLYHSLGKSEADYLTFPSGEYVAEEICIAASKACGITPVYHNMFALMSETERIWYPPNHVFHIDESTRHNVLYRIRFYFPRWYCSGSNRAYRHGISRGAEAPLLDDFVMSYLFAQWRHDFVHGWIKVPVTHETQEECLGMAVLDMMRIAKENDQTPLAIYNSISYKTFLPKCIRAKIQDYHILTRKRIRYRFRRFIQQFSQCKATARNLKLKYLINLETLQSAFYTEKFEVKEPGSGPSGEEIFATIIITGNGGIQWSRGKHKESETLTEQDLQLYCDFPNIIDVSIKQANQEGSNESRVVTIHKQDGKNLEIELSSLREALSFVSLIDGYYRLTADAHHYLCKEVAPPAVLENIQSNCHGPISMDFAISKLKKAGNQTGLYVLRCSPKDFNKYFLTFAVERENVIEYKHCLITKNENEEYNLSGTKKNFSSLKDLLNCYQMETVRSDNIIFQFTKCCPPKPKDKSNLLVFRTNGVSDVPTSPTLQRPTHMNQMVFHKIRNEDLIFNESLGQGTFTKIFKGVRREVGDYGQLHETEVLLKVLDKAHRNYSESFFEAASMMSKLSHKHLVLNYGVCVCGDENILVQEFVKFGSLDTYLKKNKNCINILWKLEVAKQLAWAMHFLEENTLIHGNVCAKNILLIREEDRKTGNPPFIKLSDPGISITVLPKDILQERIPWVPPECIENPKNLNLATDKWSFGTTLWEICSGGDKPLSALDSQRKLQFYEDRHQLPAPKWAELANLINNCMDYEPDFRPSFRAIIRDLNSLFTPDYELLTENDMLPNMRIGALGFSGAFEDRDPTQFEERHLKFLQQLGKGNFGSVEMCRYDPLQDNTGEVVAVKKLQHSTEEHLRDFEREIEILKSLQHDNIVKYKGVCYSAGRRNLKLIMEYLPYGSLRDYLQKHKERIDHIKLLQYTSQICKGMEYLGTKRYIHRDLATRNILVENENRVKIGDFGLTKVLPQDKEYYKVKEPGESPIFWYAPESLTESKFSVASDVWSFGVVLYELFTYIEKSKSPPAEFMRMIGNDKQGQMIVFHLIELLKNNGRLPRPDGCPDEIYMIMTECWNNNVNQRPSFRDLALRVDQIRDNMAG
UniProt O14965, whole entry: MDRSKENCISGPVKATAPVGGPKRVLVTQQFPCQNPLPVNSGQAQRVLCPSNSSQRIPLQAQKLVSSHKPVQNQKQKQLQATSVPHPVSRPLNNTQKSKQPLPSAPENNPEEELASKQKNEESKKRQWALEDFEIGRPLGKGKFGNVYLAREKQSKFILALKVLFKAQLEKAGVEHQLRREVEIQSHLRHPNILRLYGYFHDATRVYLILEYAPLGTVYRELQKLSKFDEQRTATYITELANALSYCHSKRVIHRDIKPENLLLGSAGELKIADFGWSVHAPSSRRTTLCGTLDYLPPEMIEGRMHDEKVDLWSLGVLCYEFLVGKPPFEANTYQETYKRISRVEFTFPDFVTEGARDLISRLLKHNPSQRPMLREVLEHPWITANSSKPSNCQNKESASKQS
UniProt Q13464, 6-553 limits assumed: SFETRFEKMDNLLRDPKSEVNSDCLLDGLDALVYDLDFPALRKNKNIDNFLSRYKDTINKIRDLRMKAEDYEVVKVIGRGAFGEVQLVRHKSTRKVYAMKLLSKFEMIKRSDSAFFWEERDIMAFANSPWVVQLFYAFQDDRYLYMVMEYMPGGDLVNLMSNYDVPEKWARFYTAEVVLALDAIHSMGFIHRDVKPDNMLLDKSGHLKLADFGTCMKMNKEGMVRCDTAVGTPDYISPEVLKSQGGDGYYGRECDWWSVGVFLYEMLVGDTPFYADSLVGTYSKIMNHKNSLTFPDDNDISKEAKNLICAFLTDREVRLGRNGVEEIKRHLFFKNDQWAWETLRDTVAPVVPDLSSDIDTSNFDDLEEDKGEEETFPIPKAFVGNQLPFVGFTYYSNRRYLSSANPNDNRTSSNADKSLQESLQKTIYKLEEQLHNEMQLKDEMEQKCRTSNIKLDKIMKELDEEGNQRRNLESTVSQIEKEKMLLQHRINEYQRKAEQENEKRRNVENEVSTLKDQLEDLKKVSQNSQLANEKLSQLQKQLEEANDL
UniProt Q13464, whole entry: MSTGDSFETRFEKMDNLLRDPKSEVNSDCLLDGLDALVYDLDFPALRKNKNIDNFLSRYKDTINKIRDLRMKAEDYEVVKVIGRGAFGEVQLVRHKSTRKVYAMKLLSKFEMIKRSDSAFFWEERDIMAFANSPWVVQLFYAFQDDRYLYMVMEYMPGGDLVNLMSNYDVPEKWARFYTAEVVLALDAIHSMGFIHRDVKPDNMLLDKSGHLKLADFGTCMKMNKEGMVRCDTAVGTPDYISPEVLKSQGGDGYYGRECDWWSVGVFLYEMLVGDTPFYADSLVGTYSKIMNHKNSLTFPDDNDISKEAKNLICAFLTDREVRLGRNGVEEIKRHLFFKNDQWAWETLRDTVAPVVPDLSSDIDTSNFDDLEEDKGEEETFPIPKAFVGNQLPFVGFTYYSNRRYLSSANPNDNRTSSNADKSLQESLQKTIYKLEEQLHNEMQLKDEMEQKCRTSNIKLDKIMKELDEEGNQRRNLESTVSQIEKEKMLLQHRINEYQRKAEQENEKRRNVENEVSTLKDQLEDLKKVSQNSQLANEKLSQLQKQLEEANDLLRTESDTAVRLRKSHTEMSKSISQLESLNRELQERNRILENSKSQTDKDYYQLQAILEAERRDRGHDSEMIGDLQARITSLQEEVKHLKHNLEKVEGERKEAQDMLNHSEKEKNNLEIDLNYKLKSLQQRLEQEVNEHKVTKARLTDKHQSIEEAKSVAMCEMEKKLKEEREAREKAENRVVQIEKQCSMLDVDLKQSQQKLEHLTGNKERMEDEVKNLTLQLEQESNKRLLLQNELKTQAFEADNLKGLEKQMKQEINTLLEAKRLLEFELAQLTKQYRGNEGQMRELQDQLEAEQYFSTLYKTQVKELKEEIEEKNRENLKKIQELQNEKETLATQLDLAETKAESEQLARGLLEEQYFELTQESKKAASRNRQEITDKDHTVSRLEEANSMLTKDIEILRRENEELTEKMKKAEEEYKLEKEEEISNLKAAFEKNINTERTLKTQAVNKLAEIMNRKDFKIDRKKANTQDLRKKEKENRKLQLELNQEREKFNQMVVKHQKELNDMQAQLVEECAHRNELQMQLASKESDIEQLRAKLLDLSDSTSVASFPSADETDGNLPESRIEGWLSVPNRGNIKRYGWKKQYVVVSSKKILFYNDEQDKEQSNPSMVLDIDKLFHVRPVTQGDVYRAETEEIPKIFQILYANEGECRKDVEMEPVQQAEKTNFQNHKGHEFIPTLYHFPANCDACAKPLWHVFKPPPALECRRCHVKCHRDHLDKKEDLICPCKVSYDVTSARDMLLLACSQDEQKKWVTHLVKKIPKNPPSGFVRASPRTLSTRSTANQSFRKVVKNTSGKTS

A further assay concerns the target JAK2 (Homo sapiens, UniProt O60674). Briefly: JAK2 inhibition assay (radioactive enzyme assay, as for JAK3). The settings on record: read-out: JAK2 Ki; average Ki if more than one value determined. The procedure: as §1
The target in assay [1] is full length Aurora-A (AA 1-403) (Homo sapiens, UniProt O14965). Briefly: Aurora-A inhibition assay, standard coupled enzyme system. To be noted: read-out: Aurora A Ki; average Ki if more than one value determined. How it is done: Compounds were screened for their ability to inhibit full length Aurora-A (AA 1-403) activity using a standard coupled enzyme system (Fox et al., Protein Sci. 7, pp. 2249 (1998)). Reactions were carried out in a solution containing 100 mM HEPES (pH 7.5), 10 mM MgCl2, 25 mM NaCl, 300 μM NADH, 1 mM DTT and 3% DMSO. Final substrate concentrations in the assay were 200 μM ATP (Sigma Chemicals, St Louis, Mo.) and 800 μM peptide (LRRASLG, American Peptide, Sunnyvale, Calif.). Reactions were carried out at 30° C. and 35 nM Aurora-A. Final concentrations of the components of the coupled enzyme system were 2.5 mM phosphoenolpyruvate, 200 μM NADH, 60 μg/ml pyruvate kinase and 20 μg/ml lactate dehydrogenase.
An assay stock buffer solution was prepared containing all of the reagents listed above with the exception of ATP and the test compound of interest. The assay stock buffer solution (60 μl) was incubated in a 96 well plate with 2 μl of the test compound of interest at final concentrations spanning 0.002 μM to 30 μM at 30° C. for 10 min. […] Rates of reaction were obtained using a Molecular Devices Spectramax plate reader (Sunnyvale, Calif.) over 10 min at 30° C. The Ki values were determined from the rate data as a function of inhibitor concentration using computerized nonlinear regression (Prism 3.0, Graphpad Software, San Diego, Calif.). […]

A further assay deals with ROCK (Homo sapiens, UniProt Q13464). Briefly: ROCK inhibition assay, standard radioactive enzyme assay ("33P"). The settings on record: read-out: ROCK 33P Ki. The procedure:
Some compounds were screened for their ability to inhibit ROCK using a standard radioactive enzyme assay. Assays were carried out in a solution containing 100 mM HEPES (pH 7.5), 10 mM MgCl2, 25 mM NaCl, 2 mM DTT, and 1.5% DMSO. Final substrate concentrations in the assay were 13 μM [γ-^33P] ATP (25 mCi ^33P ATP/mmol ATP, Perkin Elmer, Cambridge, Mass./Sigma Chemicals, St Louis, Mo.) and 27 μM Myelin Basic Protein (MBP). Final enzyme concentration in the assay was 5 nM ROCK. Assays were carried out at room temperature. 1.5 μl of DMSO stock containing serial dilutions of the compound of the present invention (concentrations ranging from 10 μM to 2.6 nM) was placed in a 96 well plate. 50 μl of Solution 1 (100 mM HEPES (pH 7.5), 10 mM MgCl2, […]) was added to the plate. The reaction was initiated by addition of 50 μl of Solution 2 (100 mM HEPES (pH 7.5), 10 mM MgCl2, 4 mM DTT, […] and 10 nM ROCK). After 2 hours the reaction was quenched with 50 μL of 30% trichloroacetic acid (TCA, Fisher) containing 9 mM ATP. Transfer of 140 μL of the quenched reaction to a glass fiber filter plate (Corning, Cat. No. 3511) was followed by washing 3 times with 5% TCA. 50 μL of Optima Gold scintillation fluid (Perkin Elmer) was added and the plates were counted on a Top Count (Perkin Elmer). […]

Another assay addresses ROCK I (AA 6-553) (Homo sapiens, UniProt Q13464). Briefly: ROCK inhibition assay, standard coupled enzyme system ("Enzyme"). To be noted: read-out: ROCK Enzyme Ki; enzyme-linked assay. The procedure: Compounds were screened for their ability to inhibit ROCK I (AA 6-553) activity using a standard coupled enzyme system (Fox et al. (1998) Protein Sci. 7, 2249). Reactions were carried out in a solution containing 100 mM HEPES (pH 7.5), 10 mM MgCl2, 25 mM NaCl, 2 mM DTT and 1.5% DMSO. Final substrate concentrations in the assay were 45 μM ATP (Sigma Chemicals, St Louis, Mo.) and 200 μM peptide (American Peptide, Sunnyvale, Calif.). Reactions were carried out at 30° C. and 45 nM ROCK L. Final concentrations of the components of the coupled enzyme system were 2.5 mM phosphoenolpyruvate, 350 μM NADH, 30 μg/ml pyruvate kinase and 10 μg/ml lactate dehydrogenase.

The Ki is the equilibrium dissociation constant of an inhibitor or competing ligand from its target.

Turning to `CC(=O)N1[C@H](C)CN(c2nc(-c3c[nH]c4ncc(Cl)cc34)ccc2C(=O)O)C[C@@H]1C`, the Ki at JAK3 is less than 500 nM; on JAK2, less than 500 nM; in assay [1] it was less than 500 nM; at ROCK, 500 to 5000 nM; at ROCK I (AA 6-553) it was 500 to 5000 nM.
On to `Clc1cnc2[nH]cc(-c3cccc(OCc4ccccc4)c3)c2c1`, for which the values for the Ki on JAK3, on JAK2 and at ROCK I (AA 6-553) were less than 500 nM, 500 to 5000 nM and 500 to 5000 nM, respectively.

The record behind these values is US8501446B2 (Vertex Pharmaceuticals Incorporated, priority 2004, dated 2013).
